Measurements taken from ChEMBL document CHEMBL4433262, “Synthesis and biological evaluation of novel benzo[c][1,2,5]thiadiazol-5-yl and thieno[3,2-c]- pyridin-2-yl imidazole derivatives as ALK5 inhibitors” (Bioorg Med Chem Lett, 2019).

Key:
[1] = biological target: T1, TGF-beta receptor type-1 (Homo sapiens) (UniProt P36897); assay: Inhibition of ALK5 in human SPC-A1 cells assessed as reduction in TGFbeta1-induced Smad2 phosphorylation at 0.1 to 0.5 uM incubated for 36 hrs by Western blot analysis; assay type: cell-based
T1 sequence (whole entry): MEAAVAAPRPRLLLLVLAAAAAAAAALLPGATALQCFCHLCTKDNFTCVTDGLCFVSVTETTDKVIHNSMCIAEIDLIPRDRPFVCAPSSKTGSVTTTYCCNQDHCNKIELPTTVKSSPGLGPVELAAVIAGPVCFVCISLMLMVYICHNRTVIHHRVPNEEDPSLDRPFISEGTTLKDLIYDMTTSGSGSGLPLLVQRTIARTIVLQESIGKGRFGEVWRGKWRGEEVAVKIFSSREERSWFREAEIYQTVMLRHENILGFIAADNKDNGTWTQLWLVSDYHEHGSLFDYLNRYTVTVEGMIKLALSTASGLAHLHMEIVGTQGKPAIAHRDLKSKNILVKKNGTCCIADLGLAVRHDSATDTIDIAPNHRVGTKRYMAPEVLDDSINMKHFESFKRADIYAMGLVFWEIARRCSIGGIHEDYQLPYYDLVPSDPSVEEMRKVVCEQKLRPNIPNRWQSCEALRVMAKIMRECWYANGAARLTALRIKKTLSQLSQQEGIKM

[2] = biological target: T1, TGF-beta receptor type-1 (Homo sapiens); assay: Inhibition of ALK5 in human HepG2 cells assessed as reduction in TGFbeta1-induced Smad2 phosphorylation incubated for 36 hrs by Western blot analysis; assay type: cell-based

inhibition [1]: Active | inhibition [2]: Dose-dependent effect
SMILES: Cc1cccc(-c2nn3c(c2-c2ccnc4ccc(C(N)=O)cc24)CCC3)n1

Calls of active or inactive are those of the source. The rule behind the calls is not given here.
